Laboratory results: patent publication US8425931B2, “Biodegradable hyaluronic acid derivative” (Industrial Technology Research Institute, priority 2003, dated 2013)

Tested on: hyaluronidase
Assay: Anti-enzyme decomposition capability analysis (uronic acid assay)
Format: in vitro ADME
Experimental: 2 mg hyaluronic acid derivative was placed into a 15 ml centrifuge tube. An appropriate amount of hyaluronidase was added into a PBS solution to form a hyaluronidase solution with a concentration of 250 units/ml. 10 ml of the hyaluronidase solution was added into the 15 ml centrifuge tube containing the hyaluronic acid derivative, and then kept at 37° C. (water bath) for 24 hours. […] An appropriate amount of D-glucuronic acid powder was precisely weighted and dissolved in the deionized water to prepare a stock solution for a D-glucuronic acid standard solution. […] Equation for calculating the amount of the hyaluronic acid derivative which is not degradation by the enzyme (hyaluronidase): The hyaluronic acid derivative which is not degradation by the enzyme=(Cg/Cs)×Z×[100/(100-h)]×(401.3/194.1) Cg: Average concentration of D-glucuronic acid in the hyaluronic acid derivative sample solution, represented by mg/g (according to the absorbance value). Cs: Average concentration of sodium hyaluronate in the hyaluronic acid derivative sample solution, represented by mg/g (according to the concentration of the hyaluronic acid derivative sample solution prepared). […]

Substance: HA1,040,000-g-100% PEG550 Copolymer [Example B-12]
- hyaluronic acid/hyaluronic acid derivative degradation ratio (%): 33.1%
